Assays:
[1] = mouse
[2] = in vivo

SMILES | free 18F-fluoride in blood ([1]; female, in vivo) | time for background to subside ([2]; C57BL6, mouse) [h] | bone retention / defluorination ([2]; mouse) | excretion from blood ([2]; mouse) | metabolic behavior in vivo [1]
NS(=O)(=O)c1ccc(-n2nc(C(F)(F)F)c([18F])c2-c2ccccc2)cc1 | no free ^18F-fluoride present | ≤ 1 | no bone retention or defluorination | excreted from blood within an hour | –
NS(=O)(=O)c1ccc(-n2nc(C(F)(F)F)c(F)c2-c2ccccc2)cc1 [compound 1] | – | – | – | – | remains virtually unchanged
